Here are results for 1 compound from publication PMC7986981 (ACS Pharmacology & Translational Science, 2021).

For the experiment, the target named is SARS-CoV-2 3CL-Pro (Severe acute respiratory syndrome coronavirus 2, UniProt P0DTD1). Nature of the experiment: biochemical. As to conditions: HP 3CL-Pro IC50 (μM).

SMILES strings stand for the structures.

On to `NC(CO)C(=O)NNCc1ccc(O)c(O)c1O` (stereo not shown) [Benserazide hdrochloride], for which 0.1 µM corresponded to half-maximal inhibition (IC50).
